Test results: US4481203A, “Composition containing 1-(n-hexylcarbamoyl)-5-fluorouracil and uracil” (priority 1977, dated 1984)
Like-named read-outs stand apart in the source and are kept apart here.

What was measured:
[1] = test system: sarcoma 180; assay: Therapeutic index (LD50/ED50) in mice (Table 5); type: in vivo, male mice of ICR strain; conditions: oral
Excerpt: The LD50 and ED50 values obtained above are used to determine the therapeutic index (LD50 /ED50).

[2] = in vivo; conditions: mouse, po
Description: (5) The anti-cancer compositions of this invention are tested in mice by the following methods to determine acute toxicity, therapeutic effect and theapeutic index.
Male mice of ICR strain weighing 22±1 g are used, 5 mice in each group. […] Over the following period of three weeks the mice are checked every day for poisoning, body weight and mortality. The LD50 is determined according to the up-and-down method 3 weeks after the administration.

SMILES | Therapeutic index (LD50/ED50) ([1]; uracil (b)/(a) mol ratio 10) | LD50 at 504 h ([2]; LD50) | Therapeutic index (LD50/ED50) ([1]; uracil (b)/(a) mol ratio 0) | Therapeutic index (LD50/ED50) ([1]; uracil (b)/(a) mol ratio 2.5) | LD50 at 504 h ([2]; mice, uracil (b)/(a) mol ratio 0, as amount of 5-fluorouracil (a), read-out: LD50) | LD50 at 504 h ([2]; mice, uracil (b)/(a) mol ratio 10, as amount of 5-fluorouracil (a), read-out: LD50)
O=c1[nH]cc(F)c(=O)[nH]1 [Compound 1, 5-Fluorouracil] | 16.2 |  |  |  |  | 
O=c1[nH]c(=O)n(C2CCCO2)cc1F (centres unmarked) [Compound 2, 1-(2-Tetrahydrofuryl)-5-fluorouracil, reference compound] | 24.1 | 446 mg/kg | 5.9 | 22.3 |  | 
CCOCn1cc(F)c(=O)[nH]c1=O [Compound 5, 1-Ethoxymethyl-5-fluorouracil] | 14.5 |  |  |  |  | 
O=c1[nH]c(=O)n(S(=O)(=O)c2ccccc2)cc1F [Compound 8, 1-Benzenesulfonyl-5-fluorouracil] | 8.9 |  | 5.0 |  |  | 
CCCC(=O)n1cc(F)c(=O)[nH]c1=O [Compound 10, 1-(n-Butyryl)-5-fluorouracil] | 5.6 | 222 mg/kg | 2.9 | 6.0 | 320 mg/kg | 157 mg/kg
